# Experimental data taken from ChEMBL document CHEMBL1142627, “Ribofuranosyl triazolone: a natural product herbicide with activity on adenylosuccinate synthetase following phosphorylation” (J Nat Prod, 2000).
# Tested on: BMS
# Assay: Inhibition of Zea mays BMS cells Adenylosuccinate synthase assessed as adenylosuccinate formation
# Format: cell-based
compound,measurement,value
O=c1[nH]ncn1[C@@H]1O[C@H](COP(=O)(O)O)[C@@H](O)[C@H]1O [PHOSPHORIBOFURANOSYL TRIAZOLONE],Activity,tde
